Columns and labels:
Type in all cases: cell-based, human
[1] = system: IL-10 production; test: ELISA of TCR-induced IL-10 production by APBTs; settings: ethanol control with HSA alone
Procedure: (§1) 0.2% Ethanol control or various doses of GML were added to APBTs in serum free media or media supplemented with between 0.2% to 2% HSA. The cells were then stimulated with plate-bound 2 μg/ml of anti-CD3 (Biolegend) for 24 hours. Protein concentrations of IL-2, IFN-γ, IL-10, and TNF-α in the media supernatants were measured by standard TMB ELISA.
(§2) Fig 6 HSA differentially restores cytokine production in GML treated cells. APBTs were suspended in serum free RPMI or RPMI supplemented with 2%, 1% or 0.2% HSA and were treated with 0.2% ethanol vehicle control, 10 μg/ml, or 20 μg/ml of GML. Cells were plated on 2 μg/ml anti-CD3 coated plates for 24 hours. Extracellular cytokine production for (A) IFN-γ, (B) IL-2, (C) IL-10, or (D) TNFα was measured by ELISA in 3 independent experiments with different human donors. To statistically confirm that GML is suppressing cytokine production without serum, Student t’s test was done by comparing EtOH treated groups with GML treated groups under the same serum free environment, indicated by the black bars, with # denoting p<0.05. […]

[2] = system: AKT phosphorylation at threonine 308 and serine 473; test: TCR-induced AKT phosphorylation by immunoblotting in APBTs; settings: 1% HSA alone, baseline and all time points post stimulation
Procedure: (§3) APBTs were treated with 0.1% ethanol control or 10 μg/ml GML resuspended in serum free media or media supplemented with 1% HSA. The cells were then incubated on ice with 2 μg/ml anti-CD3 for 30 minutes. Cells were then warmed at 37°C for 10 minutes, stimulated using IgG crosslinking antibody for various times and HSA was washed away via centrifugation. Cells were then lysed with 2X sample buffer, heated to 95°C, and sonicated.
(§4) Cell lysates were separated by polyacrylamide gel electrophoresis and transferred to PVDF. The membranes were blocked in 0.5X SEA BLOCK blocking buffer diluted in PBS. Primary antibodies were incubated overnight at 4°C. […] Immunoblot band intensity was quantified using Odyssey’s v3.0 software with the intensity of the phospho-specific antibody normalized to the intensity of the GAPDH antibody. […]
Fig 2 HSA restores AKT phosphorylation at both threonine 308 and serine 473 residues in GML treated cells. […] Phosphorylation of AKT at threonine 308 and serine 473 were assessed by immunoblotting. Representative blots (A) and immunoblot quantification (B) are shown from 5 independent experiments with different individual donors. # denotes p<0.05 in Student t’s test comparing ethanol and GML treated cells in serum free media. * denotes p<0.05 in Student t’s test comparing GML treated cells in serum free RPMI with GML treated cells in 1% HSA.

[3] = system: IFN-γ production; test: ELISA of TCR-induced IFN-γ production by APBTs; settings: ethanol control with HSA alone
Procedure: as §1, §2

[4] = system: p85 regulatory domain of PI3K; test: TCR-induced PI3K p85 phosphorylation by immunoblotting in APBTs; settings: 1% HSA alone
Procedure: as §3
as §4, with “4°C. Secondary antibodies were incubated with the membrane for 30 minutes at room temperature and then imaged using Licor Odyssey (Lincoln, NE, USA).” for “4°C.”
Supplementary file pone.0165083.s003.pdf: S3 Fig HSA and non-fatty acid free HSA have independent effects on T cell signaling and function. […] Phosphorylation of p85 regulatory domain of PI3K was assessed by immunoblotting with representative blot shown. […] Extracellular cytokine production for IFN-γ (top left), IL-2 (top right), IL-10 (bottom left), or TNFα (bottom right) was measured by ELISA. […]

Substance: HSA: fatty acid free human serum albumin (Sigma)
- IL-10 production vs ethanol control in serum free group [1]: decrease
- AKT phosphorylation vs ethanol control [2]: did not have altered AKT phosphorylation
- IFN-γ production vs ethanol control in serum free group [3]: significant increase
- phosphorylation of PI3K p85 regulatory domain following TCR stimulation [4]: decreased the phosphorylation
